Test results as given in patent US8586620B2, “Substituted indole compounds having NOS inhibitory activity” (NeurAxon, Inc., priority 2005, dated 2013).
pIC50: −log10 of the molar value.

Target: human endothelial constitutive NOS (eNOS) (Homo sapiens (Human), UniProt P29474)
Assay: Human eNOS enzyme assay, radiometric;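 note: recombinant human eNOS expressed in baculovirus-infected Sf9 cells, activity read as [3H]L-arginine turned into [3H]L-citrulline, the product isolated on ion-exchange resin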
Settings: read-out: eNOSh

For N=C(Nc1ccc2[nH]cc(C3=CN4CCC3CC4)c2c1)c1cccs1 [Compound 125, N-(3-(1-azabicyclo[2.2.2]oct-2-en-3-yl)-1H-indol-5-yl)thiophene-2-carboximidamide], the pIC50 was 3.98.
